Source: US20180043059A1, “3D Ti-6Al-4V Structures with Hydrogel Matrix” (priority 2016, published 2018)

Test system: MC3T3-E1 cells
Test: Alizarin Red S (ARS) mineralization assay
Type: cell-based, mouse
Conditions: plates; various DFM concentrations
Description: Because it is expected that pre-osteoblasts differentiate into osteoblasts under a hypoxic condition, cells should mineralize calcium in the ECM. The study of mineralization of ECM can be viewed as a measure or potential for bone formation. In this regard, Alizarin Red Assay (ARS) (Sigma-Aldrich) is used qualitatively and quantitatively to indicate the presence of calcium in the matrix. […] The negative control for this experiment is cells grown in 3D printed foams in complete media with no added glutamate. After incubation, the samples are washed carefully with PBS without disturbing the cell layer and fixed with 4% paraformaldehyde for 30 minutes. The 3D foam structures were then stained with alizarin red (pH˜4.1) in the dark and at room temperature for 30 minutes. Samples are qualitatively studied via light microscope after rinsing with PBS. The calcium nodules should appear red. To conduct quantitative analysis, 10% cetyl pyridinium chloride will be added to remove the alizarin red stain. The absorbance of the solution is measured at 570 nm OD with a spectrophotometric microplate reader.

CC(=O)N(O)CCCCCNC(=O)CCC(=O)N(O)CCCCCNC(=O)CCC(=O)N(O)CCCCCN.CS(=O)(=O)O [DFM, Deferoxamine Mesylate]
synthesis of hydroxyapatite versus DFM concentration: mostly observed at lower concentrations of DFM
